Test system: female Sprague-Dawley rats
Experiment: Atypical antipsychotic (olanzapine) weight gain model
Type: in vivo, rat
Settings: olanzapine 2 mg/kg po once daily for 14 days
Experimental: Methods: Maintain adult lean, female Sprague-Dawley rats ad libitum on normal rodent chow Purina LabDiet 5001 (12.3% fat) and water. Treat one group (n=7) with vehicle (1% lactic acid) on days 1-14 vehicle while treating the rest with olanzapine (2 mg/kg, po). Follow food intake, monitor body weight and change in fat mass over a two week treatment. After 14 days of drug delivery, divide the olanzapine treated animals (n=8 per group) and treat one group with 0.3 mg/kg Example 2 plus olanzapine, treat a second group with 1 mg/kg Example 2 plus olanzapine and treat the final group with vehicle plus olanzapine for days 15-28. […] Conclusions: Produce a significant reduction in body weight from vehicle treated controls by daily oral administration of Example 2 for 14 days to diet-induced obese (DIO), male Long-Evans rats maintained on a high-energy diet reduced food intake. Estimate the efficacy dose (T17) of 0.13 mg/kg/day for Example 2 for producing a change in body mass from control. Analyze changes in body composition to determine that the reduced body mass results from a significant reduction in fat mass at doses up to 10 mg/kg (the highest dose tested). Evaluate with a once daily oral administration of Example 2 for 14 days to two week olanzapine treated, female Sprague-Dawley rats to help to produce a significant reduction in fat mass compared to that of olanzapine treated controls.

Cc1cc2c(s1)Nc1ccccc1N=C2N1CCN(C)CC1 [olanzapine, reference compound]
cumulative food intake, body weight and fat mass vs vehicle controls: treatment emergent increases in cumulative food intake, body weight and fat mass

Reference: US7998985B2, “1,5-diphenyl-3-pyridinylamino-1,5-dihydropyrrolidin-2-one as CB1 receptor modulator” (Eli Lilly and Company, priority 2006, dated 2011)
